# scFv variants of Ab-91 (heavy chain) against a SARS-CoV-2 spike peptide

Target: peptide PDVDLGDISGINAS, taken from heptad repeat 2 (HR2) of SARS-CoV-2 spike.

Parent: Ab-91, a human scFv built as VL, three GGGGS repeats, VH. Only the CDRs of the heavy chain vary.
VL: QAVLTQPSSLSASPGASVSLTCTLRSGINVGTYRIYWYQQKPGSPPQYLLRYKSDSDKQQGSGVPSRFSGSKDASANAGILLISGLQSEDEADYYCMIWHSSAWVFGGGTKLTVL
VH: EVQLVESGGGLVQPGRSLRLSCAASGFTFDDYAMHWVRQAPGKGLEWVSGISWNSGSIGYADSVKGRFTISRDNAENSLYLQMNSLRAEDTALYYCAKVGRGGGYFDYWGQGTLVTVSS

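In library AAYL51, one, two or three CDR residues were substituted; doubles and triples were drawn at random. The assay is AlphaSeq: two haploid yeast populations carry antibody and antigen on their surface. Binding brings cells together so that they mate, and sequencing counts the barcode pairs among the diploids. Scores were corrected for input abundance and mapped to Kd with protein pairs of known affinity run in the same pool. Mating was done three times.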

Changes read parent residue, position, new residue, counted from the first residue of the VH shown. These are single substitutions, in order of position. Scale: log10 of Kd in nM, estimated from mating counts; low values are strong binders. A pair that was not seen in that replicate is written "n.d."; this usually means weak binding, but a binder can also be missed.

| # | changes | log10 Kd, replicates | control signals |
|---|---|---|---|
| 1 | S55P | n.d. / n.d. / n.d. | 2 of 9 (3.62) |
| 2 | S55L | 5.45 / n.d. / 3.30 | 1 of 9 (3.90) |
| 3 | S55C | 4.31 / 2.88 / n.d. | 0 of 9 |
| 4 | S55V | 4.07 / 3.91 / 4.13 | 1 of 9 (5.06) |
| 5 | S55G | 0.99 / 0.80 / 0.26 | 1 of 9 (5.20) |
| 6 | S55W | 4.02 / 4.44 / n.d. | 3 of 9 (4.56) |
| 7 | S55N | 3.09 / n.d. / n.d. | 1 of 9 (5.37) |
| 8 | S55K | 2.94 / 3.19 / 3.31 | 1 of 9 (6.14) |
| 9 | S55D | n.d. / 3.28 / n.d. | 0 of 9 |
| 10 | S55I | n.d. / 4.74 / n.d. | 2 of 9 (3.69) |
| 11 | S55R | 2.93 / 2.98 / 4.37 | 2 of 9 (3.43) |
| 12 | S55T | n.d. / n.d. / n.d. | 0 of 9 |
| 13 | G56A | 1.45 / 1.27 / 0.78 | 0 of 9 |
| 14 | G56W | 3.85 / 4.54 / n.d. | 3 of 9 (4.58) |
| 15 | G56C | 2.08 / 2.61 / 1.91 | 2 of 9 (4.21) |
| 16 | G56V | 2.88 / 3.30 / 3.01 | 6 of 9 (4.54) |
| 17 | G56P | n.d. / n.d. / n.d. | 0 of 9 |
| 18 | G56R | 1.89 / 1.86 / 2.51 | 2 of 9 (2.80) |
| 19 | G56M | n.d. / n.d. / n.d. | 0 of 9 |
| 20 | G56K | n.d. / n.d. / n.d. | 0 of 9 |
| 21 | G56E | 1.28 / 0.91 / 0.62 | 4 of 9 (3.95) |
| 22 | G56D | n.d. / n.d. / n.d. | 1 of 9 (4.23) |
| 23 | G56N | n.d. / n.d. / n.d. | 0 of 9 |
| 24 | G56F | 4.31 / 4.06 / 5.17 | 3 of 9 (4.69) |
| 25 | G56H | 2.03 / 2.02 / 1.92 | 3 of 9 (5.74) |
| 26 | S57W | 4.13 / 4.10 / n.d. | 2 of 9 (4.45) |
| 27 | S57R | n.d. / n.d. / n.d. | 2 of 9 (4.32) |
| 28 | S57Y | 2.25 / 1.89 / 1.72 | 1 of 9 (5.51) |
| 29 | S57D | 2.60 / 2.76 / 2.47 | 6 of 9 (5.18) |
| 30 | S57L | 4.65 / n.d. / n.d. | 3 of 9 (4.01) |
| 31 | S57M | 1.93 / 1.65 / 1.40 | 1 of 9 (4.76) |
| 32 | S57C | 3.31 / 4.58 / 3.04 | 3 of 9 (4.25) |
| 33 | S57V | 4.45 / 3.66 / 4.56 | 3 of 9 (3.91) |
| 34 | S57I | 4.03 / 3.32 / n.d. | 0 of 9 |
| 35 | S57A | 1.16 / 1.19 / 0.68 | 5 of 9 (5.71) |
| 36 | S57G | 2.68 / 2.42 / 2.67 | 1 of 9 (3.78) |
| 37 | S57T | 2.42 / 2.81 / 3.21 | 1 of 9 (2.94) |
| 38 | S57E | 0.90 / 0.85 / 0.22 | 8 of 9 (5.28) |
| 39 | S57K | 3.75 / 2.95 / 4.78 | 0 of 9 |
| 40 | S57H | n.d. / 4.28 / n.d. | 1 of 9 (3.28) |
| 41 | S57Q | 2.55 / 2.75 / 2.24 | 2 of 9 (4.05) |
| 42 | I58Y | 1.40 / 1.53 / 0.99 | 5 of 9 (4.73) |
| 43 | I58C | 3.13 / 3.09 / 3.74 | 3 of 9 (5.20) |
| 44 | I58R | n.d. / n.d. / n.d. | 0 of 9 |
| 45 | I58G | 4.64 / 5.10 / 4.36 | 3 of 9 (4.75) |
| 46 | I58E | 2.52 / 2.01 / 1.99 | 5 of 9 (4.97) |
| 47 | I58A | 4.60 / 5.78 / n.d. | 2 of 9 (4.98) |
| 48 | I58V | 3.29 / n.d. / 3.58 | 2 of 9 (4.22) |
| 49 | I58K | 1.97 / 0.87 / 1.13 | 0 of 9 |
| 50 | I58T | 0.73 / 1.04 / 0.16 | 3 of 9 (4.24) |
| 51 | I58L | 1.46 / 1.71 / 0.95 | 1 of 9 (2.76) |
| 52 | I58N | 4.00 / n.d. / n.d. | 2 of 9 (3.66) |

For reference, 4 entries of the list once more:

changes,"log10 Kd, replicates",control signals
G56K,n.d. / n.d. / n.d.,0 of 9
S57A,1.16 / 1.19 / 0.68,5 of 9 (5.71)
I58R,n.d. / n.d. / n.d.,0 of 9
I58C,3.13 / 3.09 / 3.74,3 of 9 (5.20)

Nonspecific signal, from three strains lacking the peptide, appeared in 21% of pairings of library AAYL51, centred on 4.54 (5% of these signals below 3.26); values are not corrected for it. Also given: how often the same scFv was detected with the empty control strains, with their mean in brackets.

Source: Engelhart et al. 2022 (doi:10.1038/s41597-022-01779-4), MIT Lincoln Laboratory and A-Alpha Bio; data file from the FLAb repository.